Measurements from paper PMC8554411 (Pharmacology Research & Perspectives, 2021).

Sequences of proteins named here, by UniProt entry; tags and fusion partners are left off.
UniProt P33533, whole entry: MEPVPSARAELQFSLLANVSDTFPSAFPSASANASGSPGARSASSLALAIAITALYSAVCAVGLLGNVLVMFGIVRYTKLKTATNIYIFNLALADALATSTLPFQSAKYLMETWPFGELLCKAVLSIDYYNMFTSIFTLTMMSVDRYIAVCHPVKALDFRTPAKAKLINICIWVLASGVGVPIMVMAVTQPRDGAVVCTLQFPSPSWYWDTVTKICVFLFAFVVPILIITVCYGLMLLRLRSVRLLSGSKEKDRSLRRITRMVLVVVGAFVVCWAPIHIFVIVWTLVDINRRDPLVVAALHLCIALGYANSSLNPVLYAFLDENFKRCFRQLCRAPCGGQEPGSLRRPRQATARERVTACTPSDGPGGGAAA

Molecular target: delta opioid receptor (Rattus norvegicus, UniProt P33533)
Assay type: in vivo
Conditions: DPDPE 20 μg i.pl., vehicle pretreatment, rat hindpaw

## [D‐Pen^2,5]‐Enkephalin [DPDPE, reference compound]
  effect of agonist on PGE2-stimulated thermal allodynia: reduced
